Tests used:
[1] = target: T1, ATP-dependent translocase ABCB1 (Homo sapiens, UniProt P08183)
[2] = target: T1, ATP-dependent translocase ABCB1; remark: listed apart in the source
[3] = target: T1, ATP-dependent translocase ABCB1; remark: listed apart in the source

Sequences of proteins named here, by UniProt entry; tags and fusion partners are left off.
UniProt P08183, whole entry: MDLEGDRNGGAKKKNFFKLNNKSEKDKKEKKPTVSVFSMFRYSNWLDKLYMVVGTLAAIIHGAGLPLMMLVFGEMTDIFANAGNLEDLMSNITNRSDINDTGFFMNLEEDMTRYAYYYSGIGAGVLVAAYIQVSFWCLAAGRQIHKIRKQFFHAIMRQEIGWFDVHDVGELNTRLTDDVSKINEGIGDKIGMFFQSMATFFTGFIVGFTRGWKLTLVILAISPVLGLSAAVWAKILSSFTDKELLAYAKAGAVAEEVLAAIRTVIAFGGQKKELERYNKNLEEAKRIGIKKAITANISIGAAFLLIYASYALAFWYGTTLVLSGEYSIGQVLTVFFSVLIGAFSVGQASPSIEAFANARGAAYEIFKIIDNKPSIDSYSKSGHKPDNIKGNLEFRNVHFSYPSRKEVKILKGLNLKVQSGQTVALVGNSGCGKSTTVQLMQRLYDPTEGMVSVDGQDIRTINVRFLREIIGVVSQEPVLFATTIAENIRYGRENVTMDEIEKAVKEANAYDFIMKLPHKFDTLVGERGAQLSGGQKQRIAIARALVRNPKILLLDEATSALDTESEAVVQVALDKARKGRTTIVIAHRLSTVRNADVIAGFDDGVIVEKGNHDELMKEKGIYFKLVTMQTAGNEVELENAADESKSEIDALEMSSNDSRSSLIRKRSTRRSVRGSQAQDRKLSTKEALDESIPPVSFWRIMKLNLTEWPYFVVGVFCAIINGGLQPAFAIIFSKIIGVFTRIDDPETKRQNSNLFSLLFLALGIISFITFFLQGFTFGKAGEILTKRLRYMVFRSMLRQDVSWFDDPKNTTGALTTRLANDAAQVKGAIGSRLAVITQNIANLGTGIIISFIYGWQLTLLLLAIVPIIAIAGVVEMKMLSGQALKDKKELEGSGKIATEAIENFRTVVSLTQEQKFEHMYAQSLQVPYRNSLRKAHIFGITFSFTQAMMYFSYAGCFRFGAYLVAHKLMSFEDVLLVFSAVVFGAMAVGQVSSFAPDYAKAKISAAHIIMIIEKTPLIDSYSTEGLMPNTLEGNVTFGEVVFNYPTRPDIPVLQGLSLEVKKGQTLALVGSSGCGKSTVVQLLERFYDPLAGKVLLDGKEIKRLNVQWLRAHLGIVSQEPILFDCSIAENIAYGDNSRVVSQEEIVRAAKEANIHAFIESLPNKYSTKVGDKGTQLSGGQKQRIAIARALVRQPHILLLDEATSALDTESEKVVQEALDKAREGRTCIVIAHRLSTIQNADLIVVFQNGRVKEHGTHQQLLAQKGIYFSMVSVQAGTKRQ

| Compound | IC50 [1] | IC50 [2] | IC50 [3] |
| --- | --- | --- | --- |
| CC(=O)[C@H]1CC[C@H]2[C@@H]3CCC4=CC(=O)CC[C@]4(C)[C@H]3CC[C@]12C [PROGESTERONE] | 88.1 µM | 192 µM | 96.2 µM |
| CN1CCN(CCCN2c3ccccc3Sc3ccc(C(F)(F)F)cc32)CC1 [TRIFLUOPERAZINE] | 6.3 µM | 10.9 µM | 7.2 µM |
